# From PMC9271465 (ESMO Open, 2022)
# Amino acid sequences for entries named in this document (tags omitted). Residues count along the entry.
# UniProt P00533, 25-1210 T790M: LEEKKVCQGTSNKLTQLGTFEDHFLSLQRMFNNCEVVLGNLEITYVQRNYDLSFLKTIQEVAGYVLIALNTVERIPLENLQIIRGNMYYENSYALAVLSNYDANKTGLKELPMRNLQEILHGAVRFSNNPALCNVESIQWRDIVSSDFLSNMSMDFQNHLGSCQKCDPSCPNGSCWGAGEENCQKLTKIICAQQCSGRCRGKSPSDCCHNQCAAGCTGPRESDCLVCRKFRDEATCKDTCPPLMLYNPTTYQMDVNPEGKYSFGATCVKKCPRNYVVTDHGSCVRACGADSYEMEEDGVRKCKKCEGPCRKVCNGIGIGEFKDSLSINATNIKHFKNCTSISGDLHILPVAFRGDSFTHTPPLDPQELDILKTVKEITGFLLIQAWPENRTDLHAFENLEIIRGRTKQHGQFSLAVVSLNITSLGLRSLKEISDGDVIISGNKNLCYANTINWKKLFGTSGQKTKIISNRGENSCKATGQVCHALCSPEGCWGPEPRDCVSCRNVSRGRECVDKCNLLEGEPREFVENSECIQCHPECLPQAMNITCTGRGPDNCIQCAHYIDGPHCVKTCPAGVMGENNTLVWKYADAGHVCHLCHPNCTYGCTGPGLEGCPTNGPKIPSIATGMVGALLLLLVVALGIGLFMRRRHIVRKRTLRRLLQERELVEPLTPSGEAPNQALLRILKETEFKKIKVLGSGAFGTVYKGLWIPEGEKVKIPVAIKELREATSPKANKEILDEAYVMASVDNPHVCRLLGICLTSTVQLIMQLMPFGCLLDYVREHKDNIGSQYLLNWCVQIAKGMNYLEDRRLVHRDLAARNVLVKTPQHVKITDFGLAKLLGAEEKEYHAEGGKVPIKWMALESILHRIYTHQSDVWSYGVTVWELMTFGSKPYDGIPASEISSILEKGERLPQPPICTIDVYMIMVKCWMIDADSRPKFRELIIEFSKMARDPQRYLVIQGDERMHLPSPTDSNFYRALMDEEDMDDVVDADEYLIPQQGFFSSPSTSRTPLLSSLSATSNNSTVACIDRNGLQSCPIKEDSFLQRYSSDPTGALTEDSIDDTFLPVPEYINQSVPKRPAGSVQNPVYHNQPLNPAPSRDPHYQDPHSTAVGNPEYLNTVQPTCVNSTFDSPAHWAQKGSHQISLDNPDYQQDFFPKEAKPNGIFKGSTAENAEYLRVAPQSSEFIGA
# Tests used:
# EGFR T790M = EGFR T790M (Homo sapiens, UniProt P00533, T790M); test: kinase inhibition, EGFR T790M; assay type: biochemical; conditions: read-out: IC50 against EGFR T790M; kinase level; unpublished data
# EGFR-mutated NSCLC = conditions: cited from earlier work
Compound,IC50 (EGFR T790M) [nM],median overall survival (OS) (EGFR-mutated NSCLC),median progression-free survival (PFS) (EGFR-mutated NSCLC)
C=CC(=O)Nc1cc(Nc2ncc(Cl)c(Nc3ccccc3C(=O)C(=O)N(C)C)n2)c(OC)cc1N1CCN(C)CC1 [BPI-15086],15.7,–,–
COc1cc2ncnc(Nc3ccc(F)c(Cl)c3)c2cc1OCCCN1CCOCC1 [gefitinib],–,19.3-30.5 months,9.7-10.8 months
